A word on the IC50: it is the point on the concentration scale where inhibition reaches its midpoint. A high value points to lower potency.

Amino acid sequences for entries named in this document (tags omitted). Residues count along the entry.
UniProt P07339, 65-162 limits assumed: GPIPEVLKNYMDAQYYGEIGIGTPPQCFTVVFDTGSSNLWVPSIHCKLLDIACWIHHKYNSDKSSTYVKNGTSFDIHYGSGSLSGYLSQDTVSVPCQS
UniProt P07339, 169-412 limits assumed: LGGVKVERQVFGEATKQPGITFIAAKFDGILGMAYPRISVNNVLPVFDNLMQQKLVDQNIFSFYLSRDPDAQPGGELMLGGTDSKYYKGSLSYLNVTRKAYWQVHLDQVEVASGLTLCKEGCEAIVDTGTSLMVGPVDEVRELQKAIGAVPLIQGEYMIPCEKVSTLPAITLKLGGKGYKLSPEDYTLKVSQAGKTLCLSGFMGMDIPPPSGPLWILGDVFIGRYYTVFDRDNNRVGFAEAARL

These results are taken from ChEMBL document CHEMBL2176894, “Cyanobacterial peptides as a prototype for the design of potent β-secretase inhibitors and the development of selective chemical probes for other aspartic proteases” (J Med Chem, 2012).

In the test the target is Cathepsin D (Homo sapiens, UniProt P07339). The test is described as follows: Inhibition of cathepsin D by fluorescence assay.

`COC(=O)[C@@H]1CCCN1C(=O)[C@@H](Cc1ccccc1)N(C)C(=O)[C@H](C)NC(=O)[C@H](CC(C)C)NC(=O)C[C@H](O)[C@H](Cc1ccccc1)NC(=O)[C@H](CCC(N)=O)N(C)C(=O)[C@@H](NC(=O)[C@H](C)O)C(C)C` displayed an IC50 of 0.182 µM.
`COC(=O)[C@@H]1CCCN1C(=O)[C@H](Cc1ccccc1)N(C)C(=O)[C@@H](C)NC(=O)[C@H](CC(C)C)NC(=O)C[C@H](O)[C@H](Cc1ccccc1)NC(=O)[C@H](CCC(N)=O)N(C)C(=O)[C@@H](NC(=O)[C@H](C)O)C(C)C` came in with an IC50 of 3.48 µM.
The same measure for `COC(=O)[C@@H]1CCCN1C(=O)[C@@H](Cc1ccccc1)N(C)C(=O)[C@@H](C)NC(=O)[C@H](CC(C)C)NC(=O)C[C@H](O)[C@H](Cc1ccccc1)NC(=O)[C@H](CCC(N)=O)N(C)C(=O)[C@@H](NC(=O)[C@H](C)O)C(C)C`: 7.59 µM; for `COC(=O)[C@@H]1CCCN1C(=O)[C@@H](Cc1ccccc1)N(C)C(=O)[C@H](C)NC(=O)[C@H](CC(C)C)NC(=O)C[C@H](O)[C@H](Cc1ccccc1)NC(=O)[C@H](CCC(N)=O)N(C)C(=O)[C@@H](NC(=O)[C@H](C)O)C(C)C` [TASIAMIDE B]: 0.251 µM.
